Assay results taken from PubChem BioAssay AID2662 (National Center for Advancing Translational Sciences (NCATS), 2010).
The list shows a part of the results, in another mix than the full data. Some tests of the compounds listed are not included; inactive here does not mean inactive elsewhere. Activity calls are given as the source filed them. The call rests on the fitted dose curve; in most records, active means well fitted inhibition curve with a large enough effect in the polarisation, with a control signal flat (not every such curve was filed as active); inconclusive means small, poorly fitted or top-dose-only effect, or effect the other way, or a change in a side signal; inactive means no such curve, though single readings can be large or run the other way; the % refers to the polarisation.

Sequences of proteins named here, by UniProt entry; tags and fusion partners are left off.
UniProt Q03164, whole entry: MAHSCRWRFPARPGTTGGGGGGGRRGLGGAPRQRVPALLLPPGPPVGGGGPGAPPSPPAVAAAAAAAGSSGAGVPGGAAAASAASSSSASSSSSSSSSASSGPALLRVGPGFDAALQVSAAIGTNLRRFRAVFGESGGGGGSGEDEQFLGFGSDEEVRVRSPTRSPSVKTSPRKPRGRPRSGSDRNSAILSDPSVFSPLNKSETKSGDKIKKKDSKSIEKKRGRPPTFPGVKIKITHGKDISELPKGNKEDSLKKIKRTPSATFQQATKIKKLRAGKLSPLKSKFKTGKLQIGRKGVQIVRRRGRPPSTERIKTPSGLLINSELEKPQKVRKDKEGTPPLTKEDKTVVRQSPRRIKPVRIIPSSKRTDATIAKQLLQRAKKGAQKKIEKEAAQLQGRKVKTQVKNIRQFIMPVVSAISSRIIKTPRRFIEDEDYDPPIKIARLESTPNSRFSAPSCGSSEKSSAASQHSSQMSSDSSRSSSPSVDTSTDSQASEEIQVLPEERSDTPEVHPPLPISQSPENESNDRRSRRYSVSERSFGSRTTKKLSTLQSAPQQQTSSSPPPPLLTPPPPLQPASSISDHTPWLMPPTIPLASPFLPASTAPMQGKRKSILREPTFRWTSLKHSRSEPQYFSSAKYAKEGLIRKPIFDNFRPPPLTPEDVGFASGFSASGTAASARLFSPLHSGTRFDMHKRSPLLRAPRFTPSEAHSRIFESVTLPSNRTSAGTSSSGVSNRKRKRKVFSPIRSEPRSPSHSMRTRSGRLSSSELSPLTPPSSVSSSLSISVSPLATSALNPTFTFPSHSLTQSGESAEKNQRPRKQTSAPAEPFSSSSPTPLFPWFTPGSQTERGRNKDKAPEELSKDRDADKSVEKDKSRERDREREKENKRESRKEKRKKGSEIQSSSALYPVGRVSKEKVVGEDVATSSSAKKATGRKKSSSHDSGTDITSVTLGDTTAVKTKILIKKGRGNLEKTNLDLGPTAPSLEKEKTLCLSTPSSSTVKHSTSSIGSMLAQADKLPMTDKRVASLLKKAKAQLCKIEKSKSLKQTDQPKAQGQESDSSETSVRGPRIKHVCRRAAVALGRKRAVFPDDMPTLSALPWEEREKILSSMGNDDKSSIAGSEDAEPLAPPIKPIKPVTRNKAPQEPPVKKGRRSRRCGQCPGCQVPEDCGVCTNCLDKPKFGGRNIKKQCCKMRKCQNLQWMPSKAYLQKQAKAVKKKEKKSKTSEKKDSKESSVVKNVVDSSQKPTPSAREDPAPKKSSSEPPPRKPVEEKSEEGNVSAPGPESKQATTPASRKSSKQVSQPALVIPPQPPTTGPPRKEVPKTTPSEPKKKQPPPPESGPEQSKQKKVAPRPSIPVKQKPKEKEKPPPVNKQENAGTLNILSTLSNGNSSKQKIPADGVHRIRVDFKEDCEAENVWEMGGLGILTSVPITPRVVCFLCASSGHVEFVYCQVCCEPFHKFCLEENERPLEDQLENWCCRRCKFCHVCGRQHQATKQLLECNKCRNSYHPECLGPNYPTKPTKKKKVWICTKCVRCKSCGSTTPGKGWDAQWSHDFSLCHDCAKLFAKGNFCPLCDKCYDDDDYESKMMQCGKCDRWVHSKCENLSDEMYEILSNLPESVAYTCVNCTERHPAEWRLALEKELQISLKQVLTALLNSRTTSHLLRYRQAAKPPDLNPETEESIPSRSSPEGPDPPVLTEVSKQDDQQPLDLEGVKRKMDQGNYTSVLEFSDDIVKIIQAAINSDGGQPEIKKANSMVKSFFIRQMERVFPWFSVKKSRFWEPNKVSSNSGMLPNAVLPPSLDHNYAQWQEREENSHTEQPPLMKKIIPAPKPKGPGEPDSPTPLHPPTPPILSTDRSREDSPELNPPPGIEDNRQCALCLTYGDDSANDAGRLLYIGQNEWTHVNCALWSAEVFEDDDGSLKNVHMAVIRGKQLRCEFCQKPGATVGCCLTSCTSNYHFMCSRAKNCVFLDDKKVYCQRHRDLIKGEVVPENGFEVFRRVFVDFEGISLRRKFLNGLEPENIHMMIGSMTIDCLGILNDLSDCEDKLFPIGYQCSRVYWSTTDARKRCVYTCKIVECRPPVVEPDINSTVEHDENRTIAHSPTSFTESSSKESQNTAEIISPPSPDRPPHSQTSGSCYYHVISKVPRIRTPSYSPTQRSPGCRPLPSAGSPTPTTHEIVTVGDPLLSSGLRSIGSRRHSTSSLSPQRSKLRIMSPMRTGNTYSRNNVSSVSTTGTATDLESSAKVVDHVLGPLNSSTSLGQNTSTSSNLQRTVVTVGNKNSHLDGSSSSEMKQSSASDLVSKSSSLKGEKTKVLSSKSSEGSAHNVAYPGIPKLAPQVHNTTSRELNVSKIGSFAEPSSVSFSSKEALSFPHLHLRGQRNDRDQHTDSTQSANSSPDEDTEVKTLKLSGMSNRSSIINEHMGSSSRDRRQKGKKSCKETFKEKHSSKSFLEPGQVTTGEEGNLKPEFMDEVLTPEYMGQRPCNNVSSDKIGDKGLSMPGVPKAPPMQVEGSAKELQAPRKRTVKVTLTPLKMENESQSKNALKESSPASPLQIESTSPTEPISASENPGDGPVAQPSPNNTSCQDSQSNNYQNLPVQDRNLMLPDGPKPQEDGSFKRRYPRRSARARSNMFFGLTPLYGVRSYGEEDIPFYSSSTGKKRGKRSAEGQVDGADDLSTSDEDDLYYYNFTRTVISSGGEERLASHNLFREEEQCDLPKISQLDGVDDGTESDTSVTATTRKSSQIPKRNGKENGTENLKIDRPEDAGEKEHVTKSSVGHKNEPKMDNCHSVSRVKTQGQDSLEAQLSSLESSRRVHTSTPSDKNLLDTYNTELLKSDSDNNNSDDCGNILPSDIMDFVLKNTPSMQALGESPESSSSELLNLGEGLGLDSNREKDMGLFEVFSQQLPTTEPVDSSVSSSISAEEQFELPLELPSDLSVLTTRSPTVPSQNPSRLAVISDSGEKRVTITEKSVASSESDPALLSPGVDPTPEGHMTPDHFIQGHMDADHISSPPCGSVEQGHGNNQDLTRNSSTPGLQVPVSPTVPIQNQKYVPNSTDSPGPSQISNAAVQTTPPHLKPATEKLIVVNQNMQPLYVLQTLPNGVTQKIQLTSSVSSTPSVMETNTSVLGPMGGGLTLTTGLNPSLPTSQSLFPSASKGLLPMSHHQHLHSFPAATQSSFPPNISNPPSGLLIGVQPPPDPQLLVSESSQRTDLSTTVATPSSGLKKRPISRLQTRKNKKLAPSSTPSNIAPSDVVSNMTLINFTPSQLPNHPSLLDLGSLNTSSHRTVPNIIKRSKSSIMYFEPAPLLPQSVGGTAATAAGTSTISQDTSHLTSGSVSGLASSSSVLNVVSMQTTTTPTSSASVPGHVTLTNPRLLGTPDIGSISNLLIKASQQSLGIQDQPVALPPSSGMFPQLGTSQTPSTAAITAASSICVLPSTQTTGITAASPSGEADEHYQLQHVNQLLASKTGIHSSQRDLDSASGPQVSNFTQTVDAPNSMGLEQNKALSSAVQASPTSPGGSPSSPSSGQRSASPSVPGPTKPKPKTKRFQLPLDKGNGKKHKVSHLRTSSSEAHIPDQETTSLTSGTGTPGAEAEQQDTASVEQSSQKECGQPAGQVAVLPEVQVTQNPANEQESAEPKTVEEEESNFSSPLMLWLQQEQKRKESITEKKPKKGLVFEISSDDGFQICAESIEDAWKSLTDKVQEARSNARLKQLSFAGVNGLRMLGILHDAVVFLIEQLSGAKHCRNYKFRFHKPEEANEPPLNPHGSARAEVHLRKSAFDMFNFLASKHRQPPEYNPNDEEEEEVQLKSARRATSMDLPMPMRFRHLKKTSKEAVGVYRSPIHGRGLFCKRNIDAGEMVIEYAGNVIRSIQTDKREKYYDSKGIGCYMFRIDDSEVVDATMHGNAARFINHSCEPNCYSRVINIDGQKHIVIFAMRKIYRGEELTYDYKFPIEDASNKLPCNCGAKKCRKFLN

These molecules were tested against Histone-lysine N-methyltransferase 2A (Homo sapiens) (UniProt Q03164) (assay: qHTS Fluorescence Polarization Assay for Inhibitors of MLL CXXC domain - DNA interaction). Conditions: MLL-CXXC / FITC-HOXA9 DNA fluorescence polarization; at 115 µM (top of the series).

Row | SMILES | activity change, negative = inhibition
1 | O=C(OC1CN2CCC1CC2)C(CO)(c1ccccc1)c1ccccc1 (stereo not given) | inactive: 7.43%
2 | CC(C)Oc1ccc(C(=O)NCC2(N(C)C)CCCCC2)cc1 | inactive: 6.33%
3 | CN(C)c1cccc(C(=O)NCC2(N(C)C)CCCCC2)c1 | inactive: -6.46%
4 | COc1ccc(Br)c(C(=O)NCC2(N3CCCCC3)CCCCC2)c1 | inactive: 30.9%
5 | COc1cc(C(=O)NCC2(N(C)C)CCCCC2)c([N+](=O)[O-])cc1OC | inactive: 13.5%
6 | CN(C)C1(CNC(=O)c2ccc(Br)cc2)CCCCC1 | inactive: -0.232%
7 | O=C(NCC1(N2CCCCC2)CCCCC1)c1cccc(Cl)c1 | inactive: -7.6%
8 | COc1cccc(C(=O)NCC2(N3CCCCC3)CCCCC2)c1 | inactive: 8.89%
9 | COc1ccc(Cl)cc1C(=O)NCC1(N(C)C)CCCCC1 | inactive: 11.5%
10 | CN1CCCC(OC(=O)C(O)(c2ccccc2)c2ccccc2)C1 (stereo not given) | inactive: 5.49%
11 | Cc1ccccc1C(=O)NCC1(N2CCCCC2)CCCCC1 | inactive: 18.7%
12 | CN(C)c1ccc(C(=O)NCC2(N(C)C)CCCCC2)cc1 | inactive: 0.392%
13 | CN(C)C1CCCC1OC(=O)C(O)(c1ccccc1)c1ccccc1 (stereo not given) | inactive: 5.66%
14 | COc1ccc(C(=O)NCC2(N(C)C)CCCCC2)cc1 | inactive: 10.3%
15 | CCN1CCCC(OC(=O)C2(O)c3ccccc3C=Cc3ccccc32)C1 (stereo not given) | inactive: 9.31%
16 | Cc1cc(C(=O)NCC2(N3CCCCC3)CCCCC2)ccc1[N+](=O)[O-] | inactive: -2.05%
17 | O=C(NCC1(N2CCCCC2)CCCCC1)c1cccc(Br)c1 | inactive: -2.14%
18 | C=CCN1CCN(CCOC(=O)C(O)(c2ccccc2)c2ccccc2)CC1 | inactive: -4.46%
19 | O=C(NCC1(N2CCCCC2)CCCCC1)c1cc(F)c(F)cc1Cl | inactive: -6.54%
20 | CN1[C@@H]2CC[C@H]1CC(OC(=O)C(O)(c1ccccc1)c1ccccc1)C2 (stereo not given in full) | inactive: -20.1%
21 | O=C(NCC1(N2CCCCC2)CCCCC1)c1cc([N+](=O)[O-])ccc1Cl | inactive: 21.2%
22 | Cc1ccc(C(=O)NCC2(N3CCCCC3)CCCCC2)cc1 | inactive: 14.3%
23 | CCN(CC)CC(C)C(C)OC(=O)C(O)(c1ccccc1)c1ccccc1 (stereo not given) | inactive: -6.68%
24 | COc1cc(SC)ccc1C(=O)NCC1(N(C)C)CCCCC1 | inactive: 3.77%
25 | CC(C)N1C(=O)CC2(CCN(CCOC(=O)C(O)(c3ccccc3)c3ccccc3)CC2)C1=O | inactive: -6.23%
